Measured values published in US10172961B2 (priority 2014, dated 2019).

Amino acid sequences for entries named in this document (tags omitted). Residues count along the entry.
UniProt P06828, 110-539 limits assumed: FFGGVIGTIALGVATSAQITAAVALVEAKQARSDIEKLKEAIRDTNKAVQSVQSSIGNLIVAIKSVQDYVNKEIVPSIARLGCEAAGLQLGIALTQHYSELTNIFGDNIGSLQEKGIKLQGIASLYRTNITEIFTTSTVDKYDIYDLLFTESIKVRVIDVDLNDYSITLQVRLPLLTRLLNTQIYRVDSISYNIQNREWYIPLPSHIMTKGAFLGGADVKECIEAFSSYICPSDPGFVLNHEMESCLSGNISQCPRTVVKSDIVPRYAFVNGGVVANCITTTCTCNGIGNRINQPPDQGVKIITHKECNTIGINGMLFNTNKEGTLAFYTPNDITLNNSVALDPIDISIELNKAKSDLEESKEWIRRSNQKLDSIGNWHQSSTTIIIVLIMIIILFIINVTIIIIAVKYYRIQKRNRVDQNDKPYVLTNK
UniProt P06828, 19-109 partner limits assumed: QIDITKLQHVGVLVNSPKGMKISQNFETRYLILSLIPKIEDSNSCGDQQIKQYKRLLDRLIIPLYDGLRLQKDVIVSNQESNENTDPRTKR

Tests used:
[1] = mouse, in vivo, sc, 2 mg/kg
HPIV3 = system: HPIV3; design: species or system cotton rats; conditions: rat, in vivo, ip, 5 mg/kg
[2] = molecular target: HPIV3 envelope glycoproteins (Human parainfluenza 3 virus, UniProt P06828); test: cell-based; design: species or system Human parainfluenza virus type 3; conditions: read-out: IC90 nM, in vitro efficacy

In the case of `CC[C@H](C)[C@H](NC(=O)[C@H](CO)NC(=O)[C@H](CC(=O)O)NC(=O)[C@H](CC(C)C)NC(=O)[C@@H](NC(=O)[C@H](CCCCN)NC(=O)[C@H](CC(N)=O)NC(=O)[C@H](CO)NC(=O)[C@H](CCCNC(=N)N)NC(=O)[C@H](CCCNC(=N)N)NC(=O)[C@@H](NC(=O)[C@H](Cc1c[nH]c2ccccc12)NC(=O)[C@H](CCC(=O)O)NC(=O)[C@H](CCCCN)NC(=O)[C@H](CO)NC(=O)[C@H](CCC(=O)O)NC(=O)[C@H](CCC(=O)O)NC(=O)[C@H](CC(C)C)NC(=O)[C@H](CC(=O)O)NC(=O)[C@H](CO)NC(=O)[C@H](CCCCN)NC(=O)[C@@H](NC(=O)[C@H](CCCCN)NC(=O)[C@H](CC(N)=O)NC(=O)[C@H](CC(C)C)NC(=O)[C@@H](NC(=O)[C@@H](NC(=O)[C@H](CO)NC(=O)[C@@H](NC(=O)[C@H](CC(=O)O)NC(=O)[C@@H](NC(=O)[C@@H]1CCCN1C(=O)[C@H](CC(=O)O)NC(=O)[C@H](CC(C)C)NC(=O)[C@H](C)NC(=O)[C@@H](NC(C)=O)C(C)C)[C@@H](C)CC)[C@@H](C)CC)[C@@H](C)CC)C(C)C)[C@@H](C)CC)[C@@H](C)CC)[C@@H](C)CC)C(=O)NCC(=O)N[C@@H](CO)C(=O)NCC(=O)N[C@@H](CO)C(=O)NCC(=O)N[C@@H](CSCC(=O)NCCOCCOCCOCCOCCC(=O)Oc1c(C)c(C)c2c(c1C)CC[C@@](C)(CCC[C@H](C)CCC[C@H](C)CCCC(C)C)O2)C(N)=O` [VIKI-PEG4-toc], the “presence of peptide in the brain (staining)” value [1] is reported as “present in the brain”, the “total amount of virus present in the lungs” value (HPIV3) is reported as “significantly reduced the total amount of virus present in the lungs” and the IC90 [2] is reported as 100 nM.
For `CC[C@H](C)[C@H](NC(=O)[C@H](CO)NC(=O)[C@H](CC(=O)O)NC(=O)[C@H](CC(C)C)NC(=O)[C@@H](NC(=O)[C@H](CCCCN)NC(=O)[C@H](CC(N)=O)NC(=O)[C@H](CO)NC(=O)[C@H](CCCNC(=N)N)NC(=O)[C@H](CCCNC(=N)N)NC(=O)[C@@H](NC(=O)[C@H](Cc1c[nH]c2ccccc12)NC(=O)[C@H](CCC(=O)O)NC(=O)[C@H](CCCCN)NC(=O)[C@H](CO)NC(=O)[C@H](CCC(=O)O)NC(=O)[C@H](CCC(=O)O)NC(=O)[C@H](CC(C)C)NC(=O)[C@H](CC(=O)O)NC(=O)[C@H](CO)NC(=O)[C@H](CCCCN)NC(=O)[C@@H](NC(=O)[C@H](CCCCN)NC(=O)[C@H](CC(N)=O)NC(=O)[C@H](CC(C)C)NC(=O)[C@@H](NC(=O)[C@@H](NC(=O)[C@H](CO)NC(=O)[C@@H](NC(=O)[C@H](CC(=O)O)NC(=O)[C@@H](NC(=O)[C@@H]1CCCN1C(=O)[C@H](CC(=O)O)NC(=O)[C@H](CC(C)C)NC(=O)[C@H](C)NC(=O)[C@@H](NC(C)=O)C(C)C)[C@@H](C)CC)[C@@H](C)CC)[C@@H](C)CC)C(C)C)[C@@H](C)CC)[C@@H](C)CC)[C@@H](C)CC)C(=O)NCC(=O)N[C@@H](CO)C(=O)NCC(=O)N[C@@H](CO)C(=O)NCC(=O)N[C@@H](CSCC(=O)NCCOCCOCCOCCOCCOCCOCCOCCOCCOCCOCCOCCOCCOCCOCCOCCOCCOCCOCCOCCOCCOCCOCCOCCOCCC(=O)O[C@H]1CC[C@@]2(C)C(=CC[C@H]3[C@@H]4CC[C@H]([C@H](C)CCCC(C)C)[C@@]4(C)CC[C@@H]32)C1)C(N)=O` [VIKI-PEG24-chol], the IC90 [2] was 3 nM.
In the case of `CC[C@H](C)[C@H](NC(=O)[C@H](CO)NC(=O)[C@H](CC(=O)O)NC(=O)[C@H](CC(C)C)NC(=O)[C@@H](NC(=O)[C@H](CCCCN)NC(=O)[C@H](CC(N)=O)NC(=O)[C@H](CO)NC(=O)[C@H](CCCNC(=N)N)NC(=O)[C@H](CCCNC(=N)N)NC(=O)[C@@H](NC(=O)[C@H](Cc1c[nH]c2ccccc12)NC(=O)[C@H](CCC(=O)O)NC(=O)[C@H](CCCCN)NC(=O)[C@H](CO)NC(=O)[C@H](CCC(=O)O)NC(=O)[C@H](CCC(=O)O)NC(=O)[C@H](CC(C)C)NC(=O)[C@H](CC(=O)O)NC(=O)[C@H](CO)NC(=O)[C@H](CCCCN)NC(=O)[C@@H](NC(=O)[C@H](CCCCN)NC(=O)[C@H](CC(N)=O)NC(=O)[C@H](CC(C)C)NC(=O)[C@@H](NC(=O)[C@@H](NC(=O)[C@H](CO)NC(=O)[C@@H](NC(=O)[C@H](CC(=O)O)NC(=O)[C@@H](NC(=O)[C@@H]1CCCN1C(=O)[C@H](CC(=O)O)NC(=O)[C@H](CC(C)C)NC(=O)[C@H](C)NC(=O)[C@@H](NC(C)=O)C(C)C)[C@@H](C)CC)[C@@H](C)CC)[C@@H](C)CC)C(C)C)[C@@H](C)CC)[C@@H](C)CC)[C@@H](C)CC)C(=O)NCC(=O)N[C@@H](CO)C(=O)NCC(=O)N[C@@H](CO)C(=O)NCC(=O)N[C@@H](CSCC(=O)NCCOCCOCCOCCOCCOCCOCCOCCOCCOCCOCCOCCOCCOCCOCCOCCOCCOCCOCCOCCOCCOCCOCCOCCOCCC(=O)Oc1c(C)c(C)c2c(c1C)CC[C@@](C)(CCC[C@H](C)CCC[C@H](C)CCCC(C)C)O2)C(N)=O` [VIKI-PEG24-toc], the IC90 [2] is reported as 80 nM.
With `CC[C@H](C)[C@H](NC(=O)[C@H](CO)NC(=O)[C@H](CC(=O)O)NC(=O)[C@H](CC(C)C)NC(=O)[C@@H](NC(=O)[C@H](CCCCN)NC(=O)[C@H](CC(N)=O)NC(=O)[C@H](CO)NC(=O)[C@H](CCCNC(=N)N)NC(=O)[C@H](CCCNC(=N)N)NC(=O)[C@@H](NC(=O)[C@H](Cc1c[nH]c2ccccc12)NC(=O)[C@H](CCC(=O)O)NC(=O)[C@H](CCCCN)NC(=O)[C@H](CO)NC(=O)[C@H](CCC(=O)O)NC(=O)[C@H](CCC(=O)O)NC(=O)[C@H](CC(C)C)NC(=O)[C@H](CCC(N)=O)NC(=O)[C@H](CO)NC(=O)[C@H](CCCCN)NC(=O)[C@@H](NC(=O)[C@H](CCCCN)NC(=O)[C@H](CC(N)=O)NC(=O)[C@H](CC(C)C)NC(=O)[C@@H](NC(=O)[C@@H](NC(=O)[C@H](CO)NC(=O)[C@@H](NC(=O)[C@H](CC(=O)O)NC(=O)[C@@H](NC(=O)[C@@H]1CCCN1C(=O)[C@H](CC(=O)O)NC(=O)[C@H](CC(C)C)NC(=O)[C@H](C)NC(=O)[C@@H](NC(C)=O)C(C)C)[C@@H](C)CC)[C@@H](C)CC)[C@@H](C)CC)C(C)C)[C@@H](C)CC)[C@@H](C)CC)[C@@H](C)CC)C(=O)NCC(=O)N[C@@H](CO)C(=O)NCC(=O)N[C@@H](CO)C(=O)NCC(=O)N[C@@H](CSCC(=O)NCCOCCOCCOCCOCCOCCOCCOCCOCCOCCOCCOCCOCCOCCOCCOCCOCCOCCOCCOCCOCCOCCOCCOCCOCCC(=O)O[C@H]1CC[C@@]2(C)C(=CC[C@H]3[C@@H]4CC[C@H]([C@H](C)CCCC(C)C)[C@@]4(C)CC[C@@H]32)C1)C(N)=O` [VIQKI-PEG24-chol] the IC90 [2] was 1 nM.
For `CC[C@H](C)[C@H](NC(=O)[C@H](CO)NC(=O)[C@H](CC(=O)O)NC(=O)[C@H](CC(C)C)NC(=O)[C@@H](NC(=O)[C@H](CCCCN)NC(=O)[C@H](CC(N)=O)NC(=O)[C@H](CO)NC(=O)[C@H](CCCNC(=N)N)NC(=O)[C@H](CCCNC(=N)N)NC(=O)[C@@H](NC(=O)[C@H](Cc1c[nH]c2ccccc12)NC(=O)[C@H](CCC(=O)O)NC(=O)[C@H](CCCCN)NC(=O)[C@H](CO)NC(=O)[C@H](CCC(=O)O)NC(=O)[C@H](CCC(=O)O)NC(=O)[C@H](CC(C)C)NC(=O)[C@H](CCC(N)=O)NC(=O)[C@H](CO)NC(=O)[C@H](CCCCN)NC(=O)[C@@H](NC(=O)[C@H](CCCCN)NC(=O)[C@H](CC(N)=O)NC(=O)[C@H](CC(C)C)NC(=O)[C@@H](NC(=O)[C@@H](NC(=O)[C@H](CO)NC(=O)[C@@H](NC(=O)[C@H](CC(=O)O)NC(=O)[C@@H](NC(=O)[C@@H]1CCCN1C(=O)[C@H](CC(=O)O)NC(=O)[C@H](CC(C)C)NC(=O)[C@H](C)NC(=O)[C@@H](NC(C)=O)C(C)C)[C@@H](C)CC)[C@@H](C)CC)[C@@H](C)CC)C(C)C)[C@@H](C)CC)[C@@H](C)CC)[C@@H](C)CC)C(=O)NCC(=O)N[C@@H](CO)C(=O)NCC(=O)N[C@@H](CO)C(=O)NCC(=O)N[C@@H](CSCC(=O)NCCOCCOCCOCCOCCOCCOCCOCCOCCOCCOCCOCCOCCOCCOCCOCCOCCOCCOCCOCCOCCOCCOCCOCCOCCC(=O)Oc1c(C)c(C)c2c(c1C)CC[C@@](C)(CCC[C@H](C)CCC[C@H](C)CCCC(C)C)O2)C(N)=O` [VIQKI-PEG24-toc], the IC90 [2] was 10 nM.
